# Measured values published in PubChem BioAssay AID2012 (Sanford-Burnham Center for Chemical Genomics, 2009).
# The whole screen tested about 290,000 compounds, of which about 2,700 (0.93%) were called active. All entries are inconclusive by the source's own rule. Clear calls are listed elsewhere. The rule behind the calls is not given here.
# Biological target: Eukaryotic translation initiation factor 4H (Homo sapiens) (UniProt Q15056)
# Assay: eIF4H binding inhibition – biochemical, uHTS, fluorescence polarization, translation initiation inhibitor project, primary screen (AID 2012);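 note: calls also rest on retests at 20 µM and on dose response follow-up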
# Details: eIF4H fluorescence polarization binding assay; at 35 µM; hits give high values
row,SMILES,inhibition
1,Nc1cccc2ccc([As](=O)(O)O)cc12,inconclusive: 130%
2,Nc1cccc2c([As](=O)(O)O)cccc12,inconclusive: 130%
